Data taken from US20200405697A1, “Antitumor Agent” (Taiho Pharmaceutical Co., Ltd, priority 2017, published 2020).

Test system: A549 (Human lung cancer cell line)
Assay: Effect of combination of sulfonamide compound and other antitumor agent (CellTiter-Glo, combination index): A549

For `O=c1[nH]c(=O)n([C@H]2C[C@H](O)[C@@H](CO)O2)cc1C(F)(F)F` [Trifluridine, trifluridine], the Fa value (Example Compound 14 4420 nM + Trifluridine 645 nM) was 0.8577, the Fa value (Example Compound 14 6640 nM + Trifluridine 969 nM) was 0.9068 and the Fa value (Example Compound 209A 952 nM + Trifluridine 646 nM) was 0.8235. It also gave a Fa value (Example Compound 209A 1430 nM + Trifluridine 970 nM) of 0.9021, a Fa value (Example Compound 235A 1170 nM + Trifluridine 646 nM) of 0.8250 and a Fa value (Example Compound 235A 1750 nM + Trifluridine 967 nM) of 0.8950.
